Experimental data from article PMC9593962 (Journal of chemical information and modeling, 2021).
pKi: −log10 of the molar value.

The chains behind the UniProt entries cited, without tags or fusion partners.
UniProt P23977, whole entry: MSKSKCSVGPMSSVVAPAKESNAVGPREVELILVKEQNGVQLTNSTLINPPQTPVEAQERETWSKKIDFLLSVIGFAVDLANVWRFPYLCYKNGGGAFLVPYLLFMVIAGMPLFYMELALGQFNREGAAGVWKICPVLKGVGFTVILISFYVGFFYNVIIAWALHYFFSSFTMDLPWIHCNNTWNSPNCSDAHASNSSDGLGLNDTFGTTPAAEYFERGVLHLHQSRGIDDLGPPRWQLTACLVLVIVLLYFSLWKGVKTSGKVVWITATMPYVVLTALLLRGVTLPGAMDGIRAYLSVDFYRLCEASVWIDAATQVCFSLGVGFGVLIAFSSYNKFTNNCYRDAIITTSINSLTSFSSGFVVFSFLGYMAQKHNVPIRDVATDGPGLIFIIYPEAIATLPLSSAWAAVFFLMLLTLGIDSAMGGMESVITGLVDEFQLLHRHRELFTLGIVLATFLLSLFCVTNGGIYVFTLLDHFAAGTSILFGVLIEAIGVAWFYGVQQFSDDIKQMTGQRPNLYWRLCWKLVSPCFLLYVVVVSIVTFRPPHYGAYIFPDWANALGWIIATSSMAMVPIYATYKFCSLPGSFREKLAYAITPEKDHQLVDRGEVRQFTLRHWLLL

Target: rDAT (Rattus norvegicus, UniProt P23977)
Test: Radioligand binding assay of rDAT with [3H]WIN35,428 in rat striatal membranes
Details: read-out: Ki at DAT; [3H]WIN35,428 as the radioligand

Question: `Fc1ccc(C(SCCNCCCc2ccccc2)c2ccc(F)cc2)cc1` [JJC8-016] was tested. Which pKi did it give?
Answer: 6.63
